Literature values as cited in PMC3319225.

Biological target: CD80 (Homo sapiens) (UniProt P33681)

CTLA-4 (from UniProt P16410)
Kd: 12 nM
